{
  "source": "patent US20240254218A1",
  "about": "“COMPOSITIONS AND METHODS FOR TREATING NEURODEGENERATIVE DISEASES BY INHIBITING FSH” (ICAHN SCHOOL OF MEDICINE AT MOUNT SINAI, priority 2021, published 2024)",
  "type_in_all_cases": "in vivo, mouse",
  "key": {"3xTg mice [1]": {"test_system": "3xTg mice", "assay": "Electrophysiology of long-term potentiation, FSH-injected 3xTg mice", "method": "Traces are representative field excitatory post-synaptic potentials (fEPSPs) recorded before (black) and 60 min after (red) Tris-buffered saline (TBS). Mean±SEM, N=3, **P<0.01, two-way ANOVA and Bonferroni's posthoc test.\nMice were anaesthetized with isoflurane, decapitated, and their brains dropped in ice-cold artificial cerebrospinal fluid (a-CSF) containing 124 mM NaCl, 3 mM KCl, 1.25 mM NaH2PO4, 6.0 mM MgCl2, 26 mM NaHCO3, 2.0 mM CaCl2, and 10 mM glucose. Hippocampi were dissected and cut into 400-mm thick transverse slices with a vibratome. After incubation at 23-24° C. in a-CSF for 60 to 90 min, slices were placed in a recording chamber (RC-22C, Warner Instruments) on the stage of an upright microscope (Olympus CX-31) and perfused at a rate of 3 mL per min with a-CSF (containing 1 mM MgCl2) at 23 to 24° C. A 0.1 MU tungsten monopolar electrode was used to stimulate the Schaffer collaterals. The field excitatory post-synaptic potentials (fEPSPs) were recorded in CA1 stratum radiatum by a glass microelectrode filled with a-CSF with resistance of 3-4 MU. The stimulation output (Master-8; AMPI, Jerusalem) was controlled by the trigger function of an EPC9 amplifier (HEKA Elektronik, Lambrecht, Germany). fEPSPs were recorded under current-clamp mode. […] The magnitudes of LTP are expressed as the mean percentage of baseline fEPSP initial slope."}, "3xTg mice [2]": {"test_system": "3xTg mice", "assay": "Systemic recombinant human FSH injection in 3xTg mice: neuropathology", "method": "Tissue homogenates or cell lysates (10 μg) were incubated in 200 μl assay buffer (20 mM citric acid, 60 mM Na2HPO4, 1 mM EDTA, 0.1% CHAPS, and 1 mM DTT, pH 6.0) containing 20 μM δ-secretase substrate, Z-Ala-Ala-Asn-AMC (Bachem). AMC released by substrate cleavage was quantified by measuring at 460 nm in a fluorescence plate reader at 37° C. in kinetic mode.\nmRNA levels were analyzed by quantitative PCR (qPCR). Briefly, RNA was isolated by TRIzol (Life Technologies). Reverse transcription was performed with SuperScript III reverse transcriptase (Life Technologies). Gene-specific primers and probes were designed and bought from Taqman (Life Technologies). All qPCR reactions were performed using the ABI 7500-Fast Real-Time PCR System and the Taqman Universal Master Mix Kit (Life Technologies). The relative quantification of gene expression was calculated using the ΔΔCt method.\nCells and brain tissue were washed with ice-cold PBS and lysed in (50 μmM Tris-HCl, pH 7.4, 40 mM NaCl, 1 mM EDTA, 0.5% Triton X-100, 1.5 mM Na3VO4, 50 mM NaF, 10 mM sodium pyrophosphate, 10 mM sodium β-glycerophosphate, supplemented with protease inhibitors cocktail) at 4° C. for 0.5 hours, and centrifuged for 25 min at 15,000 rpm. The supernatant was boiled in SDS loading buffer. After SDS-PAGE, the samples were transferred to a nitrocellulose membrane. The membrane was blocked with TBS containing 5% nonfat milk and 0.1% Tween 20 (TBST) at room temperature for 2 hours, followed by incubation with primary antibody at 4° C. overnight, and with the secondary antibody at room temperature for 2 hours. After washing with TBST, the membrane was developed using the enhanced chemiluminescent (ECL) detection system.\nFree-floating 25-am brain sections were used for immunostaining. For immunohistochemistry, brain sections were treated with 0.3% H2O2 for 10 minutes. Sections were washed three times in PBS and blocked in 1% BSA and 0.3% Triton X-100 for 30 min, followed by overnight incubation with anti-AP antibody (1:400), and AT8 (1:200) at 4° C. Signal was developed using Mouse and Rabbit Specific HRP/DAB (ABC) Detection IHC kit (Abcam). For immunofluorescence staining, sections were incubated overnight at 4° C. with primary Aβ (1:400), APPC586 (1:200), AT8 (1:200) or Taul-368 (1:600) antibodies. After washing with Tris-buffered saline, sections were incubated with a mixture of Alexa Fluor 488- and 594-coupled secondary antibodies (Invitrogen) for detection. DAPI (1 μg/mL) (Sigma) was used for staining nuclei. Images were acquired with an Olympus Confocal FV1000 Imaging System.\nBrain sections (25 μm) were incubated in 5% periodic acid for 5 min, washed in water, and then placed in alkaline silver iodide solution (containing 1% silver nitrate) for 1 min. The sections were then washed in 0.5% acetic acid for 10 min, placed in developer solution for 15 min, and washed with 0.5% acetic acid and then with water. The sections were treated with 0.1% gold chloride for 5 min, washed in water, and incubated in 1% sodium thiosulfate (hypo) for 5 min before a final washing.\nAmyloid plaques were stained with Thioflavin-S. Free-floating 25-μm brain sections were incubated in 0.25% potassium permanganate solution for 20 min, rinsed in distilled water, and incubated in bleaching solution containing 2% oxalic acid and 1% potassium metabisulfite for 2 min. After rinsing in distilled water, the sections were transferred to blocking solution containing 1% NaOH and 0.9% H2O2 for 20 min. The sections were incubated for 5 sec in 0.25% acetic acid, washed in distilled water, and stained for 5 min with 0.0125% thioflavin-S in 50% ethanol. The sections were washed with 50% ethanol, placed in distilled water, covered with a glass cover using mounting solution, and examined under a fluorescence microscope.\nMouse brains were fixed in 10% formalin for 24 h and then immersed in 3% potassium bichromate for 3 days in the dark. […]"}, "3xTg mice [3]": {"test_system": "3xTg mice", "assay": "Morris Water Maze, FSH-injected 3xTg mice", "conditions": "following FSH injection", "description": "N=7 mice/group, two-tailed Student's t-test, *P<0.05, **P<0.01.\nMice were trained in a round, water-filled tub (52 inch diameter) in an environment rich with extra maze cues as described previously. Each subject was given 4 trials/day for 5 consecutive days with a 15-min inter-trial interval. […] Following the 5 day of task acquisition, a probe trial was presented during which time the platform was removed and the percentage of time spent in the quadrant which previously contained the escape platform during task acquisition was measured over 60 sec. All trials were analyzed for latency by means of MazeScan (Clever Sys, Inc.)."}},
  "data": [
    {"substance": "FSH: human recombinant follicle-stimulating hormone, a glycoprotein polypeptide hormone", "values": [
      {"measurement": "fEPSP in the CA1 hippocampal region (long-term potentiation)", "setting": "3xTg mice [1]", "value": "reduced"},
      {"measurement": "apoptosis in hippocampal and cortical neurons", "setting": "3xTg mice [2]; FSH 5 IU/mouse daily, 3 months", "value": "triggered marked apoptosis"},
      {"measurement": "cleavage of APP and Tau to APP^1-373, APP^1-585 and Tau^1-368, and phosphorylated Tau", "setting": "3xTg mice [2]; FSH 5 IU/mouse daily, 3 months", "value": "induced"},
      {"measurement": "dendritic spine and synapse numbers in the hippocampus", "setting": "3xTg mice [2]; FSH 5 IU/mouse daily, 3 months", "value": "reduced"},
      {"measurement": "pTau and Aβ, and both Aβ40 and Aβ42 isoforms", "setting": "3xTg mice [2]; FSH 5 IU/mouse daily, 3 months", "value": "induced"},
      {"measurement": "C/EBPβ and AEP in 3xTg brains", "setting": "3xTg mice [2]; FSH 5 IU/mouse daily, 3 months, vs PBS", "value": "marked increase"},
      {"measurement": "Cebpb, Lgmn, App, and Mapt mRNA expression", "setting": "3xTg mice [2]; both sexes", "value": "increased"},
      {"measurement": "plaque formation (thioflavin staining, silver staining)", "setting": "3xTg mice [2]; hippocampal sections, cortex, CA1 and dentate gyrus", "value": "plaque formation confirmed"},
      {"measurement": "latency to mount the platform", "setting": "3xTg mice [3]", "value": "increased"},
      {"measurement": "time spent in the target quadrant", "setting": "3xTg mice [3]", "value": "reduced"}
    ]}
  ]
}
